# Source: paper PMC3338918 (2012)
# T1: VEGF-A165 (Homo sapiens, UniProt P15692)
# T1 chain: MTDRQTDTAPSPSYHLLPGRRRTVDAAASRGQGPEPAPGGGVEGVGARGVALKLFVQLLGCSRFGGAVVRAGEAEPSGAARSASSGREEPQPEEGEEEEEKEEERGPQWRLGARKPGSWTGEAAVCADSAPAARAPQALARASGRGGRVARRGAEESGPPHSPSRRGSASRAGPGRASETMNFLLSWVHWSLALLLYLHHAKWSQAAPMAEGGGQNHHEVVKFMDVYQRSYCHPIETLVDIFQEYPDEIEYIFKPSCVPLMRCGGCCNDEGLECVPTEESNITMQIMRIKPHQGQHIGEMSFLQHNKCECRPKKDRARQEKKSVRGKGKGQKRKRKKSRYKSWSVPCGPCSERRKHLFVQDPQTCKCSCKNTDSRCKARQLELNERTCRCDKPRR
# B1: ranibizumab Fab (antibody, V domains shown)
# VH: EVQLVESGGGLVQPGGSLRLSCAASGYDFTHYGMNWVRQAPGKGLEWVGWINTYTGEPTYAADFKRRFTFSLDTSKSTAYLQMNSLRAEDTAVYYCAKYPYYYGTSHWYFDVWGQGTLVTVSS
# VL: DIQLTQSPSSLSASVGDRVTITCSASQDISNYLNWYQQKPGKAPKVLIYFTSSLHSGVPSRFSGSGSGTDFTLTISSLQPEDFATYYCQQYSTVPWTFGQGTKVEIKR
# Biological target: T1, VEGF-A165
# Experiment: KinExA
binder,measurement,value
B1,Kd,0.0206 nM
